# Data as given in patent US8754099B2, “Oxadiazole beta carboline derivatives as antidiabetic compounds” (Merck Sharp & Dohme Corp, priority 2010, dated 2014).
# By UniProt entry, the sequences of proteins in these tests, tags left out.
# UniProt P32745, whole entry: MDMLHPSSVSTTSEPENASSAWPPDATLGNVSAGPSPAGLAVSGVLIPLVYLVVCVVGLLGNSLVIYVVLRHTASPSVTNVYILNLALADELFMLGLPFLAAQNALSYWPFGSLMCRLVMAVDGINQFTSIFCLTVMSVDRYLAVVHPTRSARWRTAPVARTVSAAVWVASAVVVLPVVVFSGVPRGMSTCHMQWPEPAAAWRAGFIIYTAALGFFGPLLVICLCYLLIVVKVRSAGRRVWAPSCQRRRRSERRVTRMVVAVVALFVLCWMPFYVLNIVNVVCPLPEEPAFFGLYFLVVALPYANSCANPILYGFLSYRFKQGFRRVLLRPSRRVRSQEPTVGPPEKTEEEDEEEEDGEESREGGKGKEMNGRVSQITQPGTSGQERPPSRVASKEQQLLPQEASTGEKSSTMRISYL
# UniProt Q12809, whole entry: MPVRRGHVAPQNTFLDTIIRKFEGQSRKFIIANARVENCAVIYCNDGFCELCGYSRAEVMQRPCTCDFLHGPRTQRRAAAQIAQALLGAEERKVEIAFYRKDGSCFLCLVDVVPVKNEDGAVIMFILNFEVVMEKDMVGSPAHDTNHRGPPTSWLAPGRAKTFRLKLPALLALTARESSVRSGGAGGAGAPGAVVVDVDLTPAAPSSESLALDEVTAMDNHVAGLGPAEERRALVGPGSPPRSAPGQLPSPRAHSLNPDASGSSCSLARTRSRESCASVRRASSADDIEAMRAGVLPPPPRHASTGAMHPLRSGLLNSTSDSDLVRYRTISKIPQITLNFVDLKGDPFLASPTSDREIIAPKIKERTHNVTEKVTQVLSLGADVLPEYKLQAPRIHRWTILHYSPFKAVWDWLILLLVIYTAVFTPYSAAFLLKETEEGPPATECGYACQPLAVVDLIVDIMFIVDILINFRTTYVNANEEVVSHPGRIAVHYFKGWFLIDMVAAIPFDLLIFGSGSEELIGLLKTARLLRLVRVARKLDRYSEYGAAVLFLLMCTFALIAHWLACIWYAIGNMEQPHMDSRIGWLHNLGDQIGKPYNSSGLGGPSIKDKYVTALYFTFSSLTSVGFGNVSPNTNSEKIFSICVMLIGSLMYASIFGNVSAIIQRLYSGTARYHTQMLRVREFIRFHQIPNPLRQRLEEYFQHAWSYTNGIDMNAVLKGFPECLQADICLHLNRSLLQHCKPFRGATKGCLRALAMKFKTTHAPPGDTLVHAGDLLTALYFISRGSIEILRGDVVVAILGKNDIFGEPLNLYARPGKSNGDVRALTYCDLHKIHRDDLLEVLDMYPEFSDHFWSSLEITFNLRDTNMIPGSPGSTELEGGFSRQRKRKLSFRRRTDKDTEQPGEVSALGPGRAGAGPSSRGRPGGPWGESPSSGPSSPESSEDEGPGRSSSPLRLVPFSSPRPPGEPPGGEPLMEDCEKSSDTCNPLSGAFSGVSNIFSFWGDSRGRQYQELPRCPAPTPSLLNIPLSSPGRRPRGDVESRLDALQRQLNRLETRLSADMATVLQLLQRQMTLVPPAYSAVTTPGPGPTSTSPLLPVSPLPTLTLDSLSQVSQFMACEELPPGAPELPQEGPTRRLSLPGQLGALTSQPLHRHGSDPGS
# Key:
# [1] = biological target: T1, human SSTR3 (Homo sapiens (Human), UniProt P32745); experiment: SSTR binding filtration assay (SSTR3); settings: read-out: Human SSTR3 Filtration Assay Ki; (3-125I-Tyr11)-SRIF-14 radioligand, CHO-K1 membranes; more active isomer
# Method: The receptor-ligand binding assays of all 5 subtype of SSTRs were performed with membranes isolated from Chinese hamster ovary (CHO)-K1 cells stably expressing the cloned human somatostatin receptors in 96-well format as previous reported. (Yang et al. PNAS 95:10836-10841, 1998, Birzin et al. Anal. Biochem. 307:159-166, 2002.) The stable cell lines for SSTR1-SSTR5 were developed by stably transfecting with DNA for all five SSTRs using Lipofectamine. Neomycin-resistant clones were selected and maintained in medium containing 400 μg/mL G418 (Rohrer et al. Science 282:737-740, 1998).
# Binding assays were performed using (3-^125I-Tyr11)-SRIF-14 as the radioligand (used at 0.1 nM) and The Packard Unifilter assay plate. The assay buffer consisted of 50 mM TrisHCl (pH 7.8) with 1 mM EGTA, 5 mM MgCl2, leupeptin (10 μg/mL), pepstatin (10 μg/mL), bacitracin (200 μg/mL), and aprotinin (0.5 μg/mL). CHO-K1 cell membranes, radiolabeled somatostatin, and unlabeled test compounds were resuspended or diluted in this assay buffer. Unlabeled test compounds were examined over a range of concentrations from 0.01 nM to 10,000 nM. The Ki values for compounds were determined as described by Cheng and Prusoff Biochem Pharmacol. 22:3099-3108 (1973).
# [2] = biological target: T1, human SSTR3; experiment: SSTR3 functional antagonist assay (cAMP, FSK + SS-14, CHO cells); settings: read-out: Human SSTR3 Antagonist EC50; 3.5 μM FSK + 100 nM SS-14; more active isomer
# Method: The effects of compounds that bind to human and murine SSTR3 with various affinities on the functional activity of the receptor were assessed by measuring cAMP production in the presence of Forskolin (FSK) along or FSK plus SS-14 in SSTR3 expressing CHO cells. FSK acts to induce cAMP production in these cells by activating adenylate cyclases, whereas SS-14 suppresses cAMP production in the SSTR3 stable cells by binding to SSTR3 and the subsequent inhibition of adenylate cyclases via an alpha subunit of GTP-binding protein (Gαi).
# To measure the antagonism activity of the compounds, we pre-incubated the human or mouse SSTR3 stable CHO cells with the compounds for 15 rain, followed by a one-hour incubation of the cells with a mixture of 3.5 μM FSK+100 nM SS-14 (in the continuous presence of the compounds). The amount of cAMP produced during the incubation was also quantified with the Lance cAMP assay. The antagonism activity of each compound was reflected both by % Inhibition (its maximum ability to block the action of SS-14) and an EC50 value which is the concentration of the test compound required to suppress the effect of 100 nM SS-14 by 50%. The % Inhibition of each compound was calculated using the following formula: % Inhibition=[1−(unknown cAMP/FSK+SS-14 cAMP)]×100
# [3] = biological target: hERG potassium ion channel (Homo sapiens (Human), UniProt Q12809)
# [4] = biological target: T1, human SSTR3; experiment: SSTR3 binding Scintillation Proximity Assay (SPA); settings: read-out: Human SSTR3 SPA Assay IC50; 125I-SS14 radioligand, CHO-K1 membranes; more active isomer
# Method: The receptor-ligand binding Scintillation Proximity Assay (SPA) (N. D. Cook. Drug Discovery Today 1 (1996), pp. 287-294) for SSTR3 was performed with membranes isolated from Chinese hamster ovary (CHO)-K1 cells stably expressing the cloned human somatostatin receptors. Binding assays were performed in 384 well format using ^125I-SS14 as the radioligand for SSTR3. The assay buffer consisted of 50 mM TrisHCl (pH 7.8) with 1 mM EGTA, 5 mM MgCl2, leupeptin (10 μg/mL), pepstatin (10 μg/mL), bacitracin (200 μg/mL), and aprotinin (0.5 μg/mL). CHO-K1 cell membranes were prebound to SPA beads and incubated with unlabelled test compounds and radiolabeled somatostatin in assay buffer. After 5 hours at room temperature, cpm/well was determined. Test compounds were examined in 10 point titrations over a range of concentrations from 0.00001 nM to 1200 nM. Percent inhibition was determined for each data point using binding in the presence of DMSO as the maximum achievable value. The results were plotted using 4 parameter fit and the inflection point reflecting 50% of the maximum inhibition was reported as the IC50.
Ki [1] [nM],EC50 [2] [nM],IC50 [4] [nM],Structure (SMILES),IC50 [3] [nM]
0.7,2.2,2.6,CCOC[C@@]1(c2nnc(C)o2)N[C@@H](c2nc(-c3ccc(F)c(C)n3)c[nH]2)Cc2c1[nH]c1ccccc21,20100
6.4,45.8,43.8,CCOC[C@]1(c2nnc(C)o2)N[C@@H](c2nc(-c3ccc(F)c(C)n3)c[nH]2)Cc2c1[nH]c1ccccc21,18100
